{"sequences": {"note": "The chains behind the UniProt entries cited, without tags or fusion partners.", "UniProt Q8WZA2, whole entry": "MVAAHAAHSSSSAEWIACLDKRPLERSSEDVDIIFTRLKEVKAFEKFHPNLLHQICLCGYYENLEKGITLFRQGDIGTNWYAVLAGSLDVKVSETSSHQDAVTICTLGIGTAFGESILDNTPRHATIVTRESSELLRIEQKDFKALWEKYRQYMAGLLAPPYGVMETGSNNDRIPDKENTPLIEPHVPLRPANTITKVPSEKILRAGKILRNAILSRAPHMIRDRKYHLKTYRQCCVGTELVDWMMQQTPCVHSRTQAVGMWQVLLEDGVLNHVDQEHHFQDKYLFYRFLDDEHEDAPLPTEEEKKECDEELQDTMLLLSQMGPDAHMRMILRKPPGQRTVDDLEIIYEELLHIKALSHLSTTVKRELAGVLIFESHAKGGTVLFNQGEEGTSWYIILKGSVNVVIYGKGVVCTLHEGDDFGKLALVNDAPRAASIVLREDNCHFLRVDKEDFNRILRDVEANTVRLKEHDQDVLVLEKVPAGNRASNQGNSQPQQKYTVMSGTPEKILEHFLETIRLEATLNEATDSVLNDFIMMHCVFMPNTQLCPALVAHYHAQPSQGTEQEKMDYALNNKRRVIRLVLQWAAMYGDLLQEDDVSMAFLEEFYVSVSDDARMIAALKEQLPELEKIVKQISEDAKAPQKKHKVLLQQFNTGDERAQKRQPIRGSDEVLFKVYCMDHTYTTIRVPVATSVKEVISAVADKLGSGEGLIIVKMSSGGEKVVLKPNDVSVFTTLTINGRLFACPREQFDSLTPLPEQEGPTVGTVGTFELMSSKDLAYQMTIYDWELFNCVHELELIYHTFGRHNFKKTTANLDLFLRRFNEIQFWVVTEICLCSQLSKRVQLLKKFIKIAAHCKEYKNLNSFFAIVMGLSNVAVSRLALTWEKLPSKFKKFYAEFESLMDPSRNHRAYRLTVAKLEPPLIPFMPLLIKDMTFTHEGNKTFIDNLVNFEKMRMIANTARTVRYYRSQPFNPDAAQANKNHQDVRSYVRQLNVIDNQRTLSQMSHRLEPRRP"}, "source": "PubChem BioAssay AID1645886", "about": "(National Center for Advancing Translational Sciences (NCATS), 2021)", "note": "“And” between values parts separate entries of the source, which are not always exact repeats. Identical values can stand only once. The list shows a part of the results, in another mix than the full data. Records with an inconclusive call do not appear. The source made the active and inactive calls. The call rests on the fitted dose curve; in most records, active means well fitted inhibition curve with a large enough effect; inconclusive means small, poorly fitted or top-dose-only effect; inactive means no such curve, though single readings can be large or run the other way.", "data": [{"molecular_target": "Rap guanine nucleotide exchange factor 4 (Homo sapiens) (UniProt Q8WZA2)", "assay": "Validation qHTS for antagonist of cAMP-regulated guanine nucleotide exchange factor 4 (EPAC2); further: nearly all actives have a fitted effect of over 40% in size", "conditions": "EPAC2 Rap1B BODIPY-GDP exchange, fluorescence; at 239 µM (top of the series) unless noted", "from_the_text": "Principle Investigator: Xiaodong Cheng Ph.D. The University of Texas Medical Branch, […], TX MLPCN Grant: NS066510 In multi-cellular eukaryotic organisms, the effects of cAMP are transduced by two ubiquitously-expressed intracellular cAMP receptors, the classic protein kinase A/cAMP-dependent protein kinase (PKA/cAPK) and the more recently discovered exchange protein directly activated by cAMP/cAMP-regulated guanine nucleotide exchange factor (EPAC/cAMP-GEF). Both PKA and EPAC are ubiquitously expressed in all tissues, and an increase in intracellular cAMP levels will lead to the activation of both PKA and EPAC. Therefore, careful dissections of the individual role and relative contribution of EPAC and PKA within the overall cAMP signaling in various model systems are critical for further elucidating the mechanism of cAMP signaling. To date no EPAC-specific antagonists and agonist, as well as isoform-specific agonists have been reported, and developing EPAC-specific pharmacological probes to determine the physiological functions that EPAC play in the overall cAMP-mediated signaling remains a major challenge within the research field. […] This qHTS will be used to screen the Molecular Libraries Small Molecule Repository (MLSMR) as a concentration-titration series using the NCGC unique quantitative screening (qHTS) platform to find activators for EPAC1. […] Activators are identified by monitoring the change in fluorescence signal as the exchanged free BODIPY-GDP has a reduced fluorescence compared to Rap1-bound BODIPY-GDP. […]\nBriefly, three uL of reagents (100 nM EPAC2, 250 nM RAP1B-BODIPY-GDP, 50 uM GDP) were dispensed into a 1536-well Greiner black solid-bottom medium binding assay plate. […] The assay plates were read at 5 minute intervals for 30 minutes in the ViewLux plate reader using 480nm excitation and 540nm emission filters. […]", "values": [{"compound": "CCC(=O)N(c1ccccc1)C1(COC)CCN(CCc2cccs2)CC1", "activity, negative = inhibition": "inactive: -16.2%"}, {"compound": "CCC(=O)N(c1ccccc1)C1(COC)CCN(CCn2nnn(CC)c2=O)CC1", "activity, negative = inhibition": "inactive: 17%"}, {"compound": "CN(CCCl)CCCl", "activity, negative = inhibition": "inactive: -2.3% [at 112 µM] and inactive: -1.03% [at 112 µM]"}]}]}
